Measurements reported in ChEMBL document CHEMBL3608303, “Discovery of novel potent and selective ligands for 5-HT2A receptor with quinazoline scaffold” (Bioorg Med Chem Lett, 2015).

Protein sequences, listed by entry. Tags and fused reporters are not part of them.
UniProt P28223, whole entry: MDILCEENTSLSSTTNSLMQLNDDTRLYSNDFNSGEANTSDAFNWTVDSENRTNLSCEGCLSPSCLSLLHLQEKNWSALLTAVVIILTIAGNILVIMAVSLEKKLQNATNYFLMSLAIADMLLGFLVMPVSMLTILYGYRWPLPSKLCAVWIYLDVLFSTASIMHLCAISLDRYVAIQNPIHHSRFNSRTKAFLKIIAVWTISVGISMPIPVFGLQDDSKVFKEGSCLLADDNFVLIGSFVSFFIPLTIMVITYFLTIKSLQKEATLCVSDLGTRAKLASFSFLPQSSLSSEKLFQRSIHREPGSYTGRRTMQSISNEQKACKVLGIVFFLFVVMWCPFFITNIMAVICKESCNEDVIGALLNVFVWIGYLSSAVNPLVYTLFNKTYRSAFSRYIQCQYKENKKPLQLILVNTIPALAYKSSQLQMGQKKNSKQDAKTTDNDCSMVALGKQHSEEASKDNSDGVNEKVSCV

What follows are compounds tested against 5-hydroxytryptamine receptor 2A (Homo sapiens, UniProt P28223) (assay: Displacement of [3H]ketanserin hydrochloride from 5-HT2A receptor (unknown origin) expressed in HEK293 cell membranes incubated for 15 mins by liquid scintillation spectrometry relative to control).
Design: concentration or dose not given beside the values

inhibition, > 90%:
OCCN1CCN(c2nc(Nc3ccc(Br)cc3)c3ccccc3n2)CC1
OCCN1CCN(c2nc(Nc3ccc(F)cc3)c3ccccc3n2)CC1
Clc1ccc(Nc2nc(N3CCNCC3)nc3ccccc23)cc1
OCCN1CCN(c2nc(Nc3ccc(Cl)cc3)c3ccccc3n2)CC1
